{"source": "patent US20090270438A1", "about": "“Novel compositions and formulations” (priority 2006, published 2009)", "assay": "Solubility in water or ethanol", "conditions": "at concentrations of 4 and 8% w/v", "data": [{"substance": "buprenorphine hydrochloride", "values": [{"measurement": "solubility in water or ethanol", "result": "not proved soluble"}]}]}
